Reference: ChEMBL document CHEMBL1201862, “PubChem BioAssay data set” (2004)
The list shows a part of the results, in another mix than the full data. These assays gave more results; the selection is not random. Calls of active or inactive are those of the source. The calls are words filed in the database; no cut-off is given here.

Amino acid sequences for entries named in this document (tags omitted).
UniProt Q92830, whole entry, looked up: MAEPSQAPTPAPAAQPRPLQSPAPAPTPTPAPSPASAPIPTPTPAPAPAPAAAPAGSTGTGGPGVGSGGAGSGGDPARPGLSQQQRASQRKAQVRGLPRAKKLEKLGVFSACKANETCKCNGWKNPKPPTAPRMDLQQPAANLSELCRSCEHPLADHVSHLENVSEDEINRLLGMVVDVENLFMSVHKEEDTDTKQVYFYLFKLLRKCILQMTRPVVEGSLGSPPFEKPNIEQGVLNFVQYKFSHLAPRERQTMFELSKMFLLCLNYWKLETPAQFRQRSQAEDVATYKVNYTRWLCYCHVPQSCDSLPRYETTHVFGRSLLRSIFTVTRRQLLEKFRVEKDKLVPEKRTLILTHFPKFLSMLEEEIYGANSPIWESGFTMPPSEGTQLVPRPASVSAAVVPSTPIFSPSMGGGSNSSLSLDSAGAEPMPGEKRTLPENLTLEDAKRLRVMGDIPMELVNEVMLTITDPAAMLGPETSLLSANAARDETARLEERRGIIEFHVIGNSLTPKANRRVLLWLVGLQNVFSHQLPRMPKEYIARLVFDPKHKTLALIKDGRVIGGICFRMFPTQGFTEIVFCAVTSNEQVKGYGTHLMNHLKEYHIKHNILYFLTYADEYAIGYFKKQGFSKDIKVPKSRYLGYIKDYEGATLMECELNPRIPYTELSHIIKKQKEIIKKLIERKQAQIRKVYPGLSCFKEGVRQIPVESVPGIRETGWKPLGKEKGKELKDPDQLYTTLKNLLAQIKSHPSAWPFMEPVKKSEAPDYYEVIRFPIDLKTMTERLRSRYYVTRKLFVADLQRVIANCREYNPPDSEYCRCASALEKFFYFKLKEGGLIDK

Target: Histone acetyltransferase KAT2A (Homo sapiens) (UniProt Q92830)
Assay: qHTS Assay for Inhibitors of GCN5L2. [Related pubchem assays (depositor defined):AID504398]
Format: functional

Row | SMILES | Potency
1 | CC[n+]1c(/C=C/N(C)c2ccccc2)oc2ccc(Cl)cc21 | inactive
